# Measured affinities in a library of Ab-91 heavy chain variants

The measurements come from Engelhart et al. 2022 (doi:10.1038/s41597-022-01779-4) through the FLAb antibody collection.

Antigen: PDVDLGDISGINAS, a 14-residue peptide of the SARS-CoV-2 spike HR2 region.

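The starting antibody came from a phage panning campaign against this peptide. AAYL51 was designed without a model: most single CDR substitutions and a random sample of double and triple ones. The assay is AlphaSeq: two haploid yeast populations carry antibody and antigen on their surface. After mating in shaken culture at 30 °C for 16 h, diploids were selected and their barcode pairs sequenced. The ratio of observed to expected reads was calibrated, replicate by replicate, on BCL2-family standards whose Kd was known from biolayer interferometry. Each pool was mated in three replicate cultures.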

The variants keep the light chain, the linker and the frameworks of Ab-91 (scFv order VL, the linker GGGGSGGGGSGGGGS, VH).
VL: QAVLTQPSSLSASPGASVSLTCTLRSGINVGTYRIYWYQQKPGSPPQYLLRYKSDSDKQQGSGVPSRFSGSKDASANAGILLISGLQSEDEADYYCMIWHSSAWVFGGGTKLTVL
VH: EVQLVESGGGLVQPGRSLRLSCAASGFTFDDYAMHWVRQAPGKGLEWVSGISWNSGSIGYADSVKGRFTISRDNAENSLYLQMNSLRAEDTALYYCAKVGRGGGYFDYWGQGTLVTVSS

Each variant is given by its three heavy chain CDRs, as the data file delimits them; those of the parent are GFTFDDYAMH, GISWNSGSIGYADSVK, VGRGGGYFDY. Numbers give log10(Kd / nM), so 0 is 1 nM and 3 is 1 µM. Smaller is tighter. Replicates are averaged; those with no signal do not enter the mean. A pair that was not seen in that replicate is written "ND"; this usually means weak binding, but a binder can also be missed. As a blank, each scFv also met three strains without target: over library AAYL51, 21% of these pairings were detected, typically at 4.54 and seldom below 3.26. Also given: how often the same scFv was detected with the empty control strains, with their mean in brackets.

| CDR-H1 | CDR-H2 | CDR-H3 | log10 Kd (nM) by replicate | mean log10 Kd (nM) | empty controls |
|---|---|---|---|---|---|
| GFTFDDYADH | GISWYSGSYGYADSVK | VGRGGGYFDY | 4.68 ND ND | 4.68 | 2 of 9 (4.04) |
| GFTYDDYAMH | GISEWSGSIGYADSVK | VGRGGGYFDY | ND ND ND | ND | 0 of 9 |
| GFTFSDYAMH | GISWNSGSIAYADSVK | VGRGGGYFDY | 2.99 2.91 2.50 | 2.80 | 6 of 9 (4.95) |
| GFTFDDYLMH | GISWNSGAIGYADSVK | VGRGGGYFDY | 4.31 ND 4.31 | 4.31 | 5 of 9 (4.08) |
| GFPFDDYAMH | GISWNSGSIGYADSVK | PGRGGGYFDY | 4.75 5.89 5.48 | 5.37 | 7 of 9 (4.82) |
| GFTFDDYYMH | GISWNSVSIGYADSVM | VGRGGGYFDY | 4.42 4.49 ND | 4.46 | 1 of 9 (5.18) |
| GFTFDDYAMH | GISINSGSIGYADSVK | VGRGGGHFDY | 2.95 2.82 3.05 | 2.94 | 3 of 9 (4.87) |
| GFTFDDYAMH | GISWNSVSIGYADSVK | VGRGGFYFDP | ND 5.07 ND | 5.07 | 0 of 9 |
| GPTFDYYAMF | GISWNSGSIGYADSVK | VGRGGGYFDY | ND ND ND | ND | 1 of 9 (3.86) |
| GFTFVDYDMH | DISWNSGSIGYADSVK | VGRGGGYFDY | 4.95 5.12 ND | 5.03 | 3 of 9 (5.00) |
| GQTFDDYAMH | GISWNSGSIGYADSCK | VGRGGGYFDY | ND ND ND | ND | 4 of 9 (5.21) |
| GFTFDDYAMH | GISWNRGSIGYADSVN | VFRGGGYFDY | ND ND ND | ND | 0 of 9 |
| GFTFDDYAMS | GISCNSGSIGYADSVK | VGRGGGYTDY | 4.39 6.01 4.80 | 5.07 | 2 of 9 (5.43) |
| RFTFDDYAMH | GISWNSGSIGYADSVK | VGRGGGYFDY | 3.62 4.72 ND | 4.17 | 4 of 9 (4.53) |
| GFTEDDYAMH | GISWNSGSIGYADSVK | VGRGGKGFDY | ND ND 4.95 | 4.95 | 3 of 9 (4.29) |
| GFTFDDYAMH | GIIWNSGSIGYADSVK | NGRGGGYFDY | ND 5.56 ND | 5.56 | 1 of 9 (4.57) |
| GFTFDEYAMH | GISWNSGSIGYADSVK | VFRGGGYFYY | 0.96 0.82 0.45 | 0.75 | 6 of 9 (4.59) |
| GFTFDDYAMH | GIRWNPGSIGYADSVK | VGRKGGYFDY | ND ND ND | ND | 0 of 9 |
| GFTFDDYAMH | GISFMSGSIGYADSVK | VGRGGCYFDY | ND ND ND | ND | 0 of 9 |
| GFTFDDYADH | RISWNSGSIGYADSGK | VGRGGGYFDY | 5.40 4.70 4.00 | 4.70 | 2 of 9 (4.01) |
| GFTFDDYAMH | GIYWNSGSIGYADSVK | VGRGGGYNNY | 5.29 5.35 ND | 5.32 | 7 of 9 (5.22) |
| GSTFDSYAMH | GISWNSGSIGFADSVK | VGRGGGYFDY | ND ND ND | ND | 0 of 9 |
| GFTFDDYAMS | GISWNQGSIGYADSVK | VGRGGMYFDY | 5.29 ND ND | 5.29 | 6 of 9 (4.65) |
| GFTFDDYAMH | GISWNSGSIGYADSVK | VWRGMAYFDY | 5.15 5.09 5.15 | 5.13 | 4 of 9 (4.59) |
| GFTFDDYAMH | GYSWNRGSIGLADSVK | VGRGGGYFDY | ND ND ND | ND | 0 of 9 |
| GFTFDDYAMH | GISWNSGSIGVADSVK | VGRGTRYFDY | ND ND ND | ND | 1 of 9 (2.74) |
| GFTFDDYAMW | GISWNSGSISYADSVK | VNRGGGYFDY | ND ND ND | ND | 1 of 9 (4.87) |
| GRTFDDYAMH | GISWNSTTIGYADSVK | VGRGGGYFDY | 5.95 5.58 4.69 | 5.41 | 3 of 9 (5.05) |
| GFTFYDYAMH | GISWNSGSIGYADSVP | VRRGGGYFDY | 4.00 ND ND | 4.00 | 2 of 9 (3.62) |
| GFTFWDYAMH | GIHWNSHSIGYADSVK | VGRGGGYFDY | ND 4.25 4.71 | 4.48 | 3 of 9 (4.43) |
| GFTFDDYAMH | GISWNSGSISYANSVK | NGRGGGYFDY | 4.09 4.67 ND | 4.38 | 2 of 9 (4.88) |
| GFEFDDYAMH | LISWNSGSIGYADSVK | VGRGGGYGDY | ND 4.94 ND | 4.94 | 0 of 9 |
| GFTFDDYALH | GISWNSGKIGYADSAK | VGRGGGYFDY | 3.70 ND 3.39 | 3.55 | 0 of 9 |
| GFTFDDYAMH | GISWNSGSIGGADSKD | VGRGGGYFDY | ND ND 4.63 | 4.63 | 1 of 9 (3.13) |
| GFTFDMYAEH | GISWNSGSIGYADSVK | VGRGGGRFDY | ND ND ND | ND | 0 of 9 |
| GVTFDDYAMH | GYSWNSGSIGYADSVK | VGAGGGYFDY | 4.31 ND ND | 4.31 | 2 of 9 (4.36) |
| HFTFDDYAMH | GISWNSGSIGYADSVK | VGRGGGYTWY | 5.93 4.98 ND | 5.45 | 4 of 9 (3.90) |
| GFTFDNYAMH | DISWNSGSIGSADSVK | VGRGGGYFDY | 4.71 ND ND | 4.71 | 5 of 9 (4.76) |

5 of these entries, quoted again:

| CDR-H1 | CDR-H2 | CDR-H3 | log10 Kd (nM) by replicate | mean log10 Kd (nM) | empty controls |
|---|---|---|---|---|---|
| GFTFDDYAMH | GIRWNPGSIGYADSVK | VGRKGGYFDY | ND ND ND | ND | 0 of 9 |
| GFTFYDYAMH | GISWNSGSIGYADSVP | VRRGGGYFDY | 4.00 ND ND | 4.00 | 2 of 9 (3.62) |
| GFTFWDYAMH | GIHWNSHSIGYADSVK | VGRGGGYFDY | ND 4.25 4.71 | 4.48 | 3 of 9 (4.43) |
| GFTFDDYAMH | GISWNSGSIGYADSVK | VWRGMAYFDY | 5.15 5.09 5.15 | 5.13 | 4 of 9 (4.59) |
| GFTFDDYAMH | GISWNSVSIGYADSVK | VGRGGFYFDP | ND 5.07 ND | 5.07 | 0 of 9 |